System: SH-SY5Y cells
Assay: Neurite outgrowth (differentiation) in SH-SY5Y cells, Tubulin Tracker imaging
Format: cell-based, human
Settings: proteins at 0.2 mg/mL
Experimental: Transferrin is utilized in cell culture and in-vivo to deliver iron as a nutrient to cells. This is typically accomplished through the actions of holo-transferrin (HoloTf) binding to, and endocytosis by, its cognate receptor CD71, the transferrin receptor 1 (TfR1). Transferrin is typically believed to provide cells with iron as a means to promote and sustain metabolic activity. […] Induction of neuronal differentiation was assessed by morphological parameters of neurite formation (a key element typically used as a marker of neuronal differentiation, neuronal health, and function) according to the procedures of Agholme, 2010. J. of Alzheimer's Disease. Vol. 20:1p 069-108; and Dyberg et al., 2017. PNAS Vol 114 (32), E6603-E6612.
Undifferentiated SH-SY5Y cells were seeded into 96 well clear bottom plates in media containing 0.1% FBS. […]
Cells were allowed to differentiate for 6 days. Neurite growth was assessed by imaging and image analysis. […]
After obtaining images, the MetaExpress Neurite Outgrowth analysis module (Molecular Devices) was used to identify cells, cell bodies, and quantify neurites. […] The Outgrowth Fold Change was determined by setting the untreated control cells to a value of 1 with all other treatments shown relative to untreated control.
Undifferentiated SH-SY5Y cells were seeded and treated as described in Example 1. Neurite growth was assessed by imaging and image analysis. […]

pdHSA: Plasma-derived human serum albumin purified from pooled human plasma [reference compound]
neurogenesis (neurite outgrowth) of SH-SY5Y (FIG. 3B): did not affect neurogenesis

rHSA: low-affinity iron binding form of human serum albumin, obtained from Albumedix [reference compound]
neurogenesis / differentiation of SH-SY5Y (FIG. 4): neither bovine serum albumin (BSA) nor a low-affinity iron binding form of human serum albumin affected neurogenesis

From patent publication US20230265167A1, “COMPOSITIONS HAVING NEUROREGENERATIVE APPLICATIONS” (GRIFOLS WORLDWIDE OPERATIONS LIMITED, priority 2020, published 2023)
